The values below come from ChEMBL document CHEMBL5113527, “First-in-Class Hydrazide-Based HDAC6 Selective Inhibitor with Potent Oral Anti-Inflammatory Activity by Attenuating NLRP3 Inflammasome Activation” (J Med Chem, 2022).

Molecules are shown by their SMILES.

The experiment is filed under the species Homo sapiens. Briefly: Selectivity index, ratio of IC50 for recombinant HDAC1(unknown origin) to IC50 for full length recombinant human HDAC6.

Turning to `CCNNC(=O)c1ccc(CN2c3ccccc3C=Cc3ccncc32)cc1`, the Ratio IC50 stood at 80.
